From patent US8367677B2, “Non-glycosylated/non-glycosidic/non-peptidic small molecule PSGL-1 mimetics for the treatment of inflammatory disorders” (Revotar Biopharmaceuticals AG, priority 2004, dated 2013)

How the values were obtained:
[1] = biological target: T1, human P-Selectin-IgG-chimera (Homo sapiens, UniProt P16109); assay: Sialyl Lewis x Tyrosine Sulfate Assay (sLex TSA), P-selectin; assay type: binding
T1 sequence (P16109 42-771 limits assumed): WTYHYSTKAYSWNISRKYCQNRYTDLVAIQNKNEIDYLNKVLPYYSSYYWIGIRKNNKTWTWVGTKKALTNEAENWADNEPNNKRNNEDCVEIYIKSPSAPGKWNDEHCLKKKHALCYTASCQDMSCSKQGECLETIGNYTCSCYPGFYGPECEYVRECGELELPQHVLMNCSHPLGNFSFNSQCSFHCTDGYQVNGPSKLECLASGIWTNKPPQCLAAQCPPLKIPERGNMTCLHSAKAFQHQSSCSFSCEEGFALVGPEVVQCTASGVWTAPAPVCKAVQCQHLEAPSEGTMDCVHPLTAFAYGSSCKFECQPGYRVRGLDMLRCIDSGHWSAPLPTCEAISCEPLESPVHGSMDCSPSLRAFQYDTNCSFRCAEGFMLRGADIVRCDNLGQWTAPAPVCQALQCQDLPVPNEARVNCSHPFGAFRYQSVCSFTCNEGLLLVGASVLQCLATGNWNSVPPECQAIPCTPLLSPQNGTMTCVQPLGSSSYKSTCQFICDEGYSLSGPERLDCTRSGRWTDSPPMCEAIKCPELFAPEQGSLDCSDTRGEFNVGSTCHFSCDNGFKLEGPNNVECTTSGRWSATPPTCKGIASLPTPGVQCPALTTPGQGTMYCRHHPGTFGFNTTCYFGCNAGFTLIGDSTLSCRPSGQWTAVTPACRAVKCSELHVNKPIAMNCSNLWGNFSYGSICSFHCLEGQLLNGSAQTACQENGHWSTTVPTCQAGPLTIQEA
Procedure: (§1) Compounds of the present invention are assayed on a molecular level for their ability to inhibit the binding of P-, L-, or E-selectin chimeric molecules to sLe^x and tyrosinesulfate residues linked to a polymeric matrix as a PSGL-1 substitute. Selected 50% inhibitory concentrations (IC50-values) are determined.
(§2) Microtiter plates are coated overnight in carbonate buffer pH9.6 with goat anti human Fc mAB (10 μg/ml). After washing in assay buffer (25 mM 4-(2-hydroxyethyl)-1-piperazineethanesulfonic acid (HEPES), 150 mM NaCl, 1 mM CaCl2 pH7.4) and blocking (3% bovine serum albumin (BSA) in assay buffer) plates are incubated for 2 h at 37° C. with human P-Selectin-IgG-chimera (0.61 nM respectively 150 ng/mL) or human L-Selectin-IgG-chimera (0.61 nM respectively 89 ng/mL) or human E-Selectin-IgG-chimera (0.61 nM respectively 131 ng/mL). 5 μl of sLe^x-tyrosine sulfate polyacrylamide (1 mg/ml) carrying 15% sLe^x, 10% Tyrosine-sulfate and 5% biotin is complexed with 20 μl Streptavidin-Peroxidase solution (1 mg/ml) and 25 μl assay buffer without CaCl2. For use in the assay, the ligand complex is diluted 1:10000 in assay buffer and further diluted 1:1 with varying amounts of compounds in assay buffer incl. […] Bound sLe^x-Tyrosine sulfate ligand complex is determined by measuring optical density at 450 nm vs. 620 nm in a Fusion alpha-FP reader (sold from Packard Bioscience, Dreieich, Germany).

[2] = biological target: T2, human L-Selectin-IgG-chimera (Homo sapiens, UniProt P14151); assay: Sialyl Lewis x Tyrosine Sulfate Assay (sLex TSA), L-selectin; assay type: binding
T2 construct: fused on or other part: human IgG Fc part, a tag and dimerising handle that is captured by the goat anti-human Fc antibody on the plate
T2 sequence (P14151 39-318 limits assumed): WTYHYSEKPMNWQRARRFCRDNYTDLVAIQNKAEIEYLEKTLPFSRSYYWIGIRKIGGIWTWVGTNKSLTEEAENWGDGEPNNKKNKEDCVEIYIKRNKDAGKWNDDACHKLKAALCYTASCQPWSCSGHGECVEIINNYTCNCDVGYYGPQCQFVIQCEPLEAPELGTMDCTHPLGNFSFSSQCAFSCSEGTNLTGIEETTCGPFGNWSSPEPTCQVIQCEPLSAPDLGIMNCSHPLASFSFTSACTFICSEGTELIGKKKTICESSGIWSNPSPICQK
Procedure: as §1, §2

O=C(O)Cc1cccc(NC(=O)CCc2cc(O)c(O)c(O)c2)c1 [Compound 109]
IC50 [1]: 2300 nM
IC50 [2]: 2300 nM
